Reference: PMC7007424 (Neurotherapeutics, 2019)

Sequences of proteins named here, by UniProt entry; tags and fusion partners are left off.
UniProt P08684, whole entry: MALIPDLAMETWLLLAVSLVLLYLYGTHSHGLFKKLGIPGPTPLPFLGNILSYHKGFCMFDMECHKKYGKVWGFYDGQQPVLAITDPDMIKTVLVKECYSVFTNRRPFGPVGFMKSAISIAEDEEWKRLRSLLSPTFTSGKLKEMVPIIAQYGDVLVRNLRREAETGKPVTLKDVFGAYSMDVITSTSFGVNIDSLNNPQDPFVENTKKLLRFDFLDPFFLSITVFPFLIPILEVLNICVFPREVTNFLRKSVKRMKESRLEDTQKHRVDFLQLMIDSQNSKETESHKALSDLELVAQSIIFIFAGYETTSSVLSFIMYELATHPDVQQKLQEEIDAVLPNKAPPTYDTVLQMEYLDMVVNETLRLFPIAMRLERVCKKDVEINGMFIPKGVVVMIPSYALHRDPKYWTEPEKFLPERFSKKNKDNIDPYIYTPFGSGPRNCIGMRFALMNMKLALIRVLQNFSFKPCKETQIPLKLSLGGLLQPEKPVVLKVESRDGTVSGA

Legend:
[1] = biological target: CYP3A4 (Homo sapiens, UniProt P08684); conditions: 10 μM
[2] = in vitro; conditions: PAMPA

Row | SMILES | CYP3A4 activity [1] | Papp [2]
1 | CC(C(=O)NCc1ccccc1)N1C(=O)CCC1=O (centres unmarked) [AS-1] | 96.9 ± 0.4^a Percentage of control | 
2 | CCn1cc(C(=O)O)c(=O)c2cc(F)c(N3CCNCC3)cc21 [NFX, norfloxacin, reference compound] |  | 0.56 ± 0.01 ×10⁻⁶ cm/s

Marks after values point to notes of the source that are not given here.
